Values of other authors in patent US20210299075A1 (priority 2020, published 2021).

Conditions: Hendley et al.

Oc1c(Cl)cc(Cl)c(Cl)c1Cc1c(O)c(Cl)cc(Cl)c1Cl [hexachlorophene]
antiviral activity: performed poorly
